Reference: US12507703B2, “Methods, devices and compositions for preserving human milk” (The Trustees of Princeton University, priority 2023, dated 2025)
One block for each compound: values may come before it.

Legend:
glycerol = assay: Glycerol-Glo assay of glycerol (byproduct of fat breakdown) in stored human milk; assay type: biochemical; conditions: human milk stored 1 week at −20° C.; for Glycerol (RLU): Table 7, single compound 20 mg/mL, inhibited if RLU <150,000
lipase = assay: Lipase/lipolysis assay (EnzChek Lipase Substrate, quenched BODIPY-fatty acid conjugate) on stored human milk; conditions: for Hit in lipase inhibition screen (in words): approximately 2700 compound screen, hit = RFU <400
[1] = Biolog PM1 compound added to fresh human milk, stored 1 week at −20° C., RFU <400 = hit
[2] = Biolog PM5 compound added to fresh human milk, stored 1 week at −20° C., RFU <400 = hit
[3] = Table 7, single compound 20 mg/mL, human milk stored 1 week at −20° C., inhibited if RFU <400
[4] = human milk stored 1 week at −20° C.
[5] = Biolog PM2a compound added to fresh human milk, stored 1 week at −20° C., RFU <400 = hit
[6] = compound added to fresh human milk, stored 1 week at −20° C., thawed at room temperature, RFU <400 considered a hit
[7] = Food Additive Library compound added to fresh human milk, stored 1 week at −20° C., thawed at room temperature, RFU of <400 considered a hit
[8] = Food-Sourced Compound Library compound added to fresh human milk, stored 1 week at −20° C., thawed at room temperature, RFU <400 considered a hit
[9] = Biolog PM4 compound added to fresh human milk, stored 1 week at −20° C., RFU <400 = hit

- Lipase (RFU) (lipase; [1]): 1219.614 RFU
- Lipase (RFU) (lipase; [2]): 284.3494 RFU
- Lipase (RFU) (lipase; [3]): 389.079 RFU
- Hit in lipase inhibition screen (in words) (lipase; [4]): significantly inhibited lipase activity
- Effect on lipase / lipolysis (in words) (lipase; [4]): reduced lipase and glycerol production
Compound: Tween 20
- Glycerol (RLU) (glycerol): 94118 RLU
- Effect on glycerol production (in words) (glycerol): reduced lipase and glycerol production

- Lipase (RFU) (lipase; [5]): 264.6242 RFU
- Lipase (RFU) (lipase; Table 7, single compound 20 mg/mL, human milk stored 1 week at −20° C., inhibited if RFU <400, listed as N-Acetylneuraminic acid): 339.424 RFU
- Lipase (RFU) (lipase; Table 7, single compound 20 mg/mL, human milk stored 1 week at −20° C., inhibited if RFU <400, listed as N-acetylneuraminic acid): 395.436 RFU
- Hit in lipase inhibition screen (in words) (lipase; [4]): significantly inhibited lipase activity
Compound: CC(=O)N[C@H]1[C@H]([C@H](O)[C@H](O)CO)OC(O)(C(=O)O)C[C@@H]1O (stereo partly shown) [N-Acetyl-Neuraminic Acid]
- Glycerol (RLU) (glycerol): 90612 RLU

- Lipase (RFU) (lipase; [3]): 838.974 RFU
Compound: Apple pectin
- Glycerol (RLU) (glycerol): 142165 RLU

- Lipase (RFU) (lipase; [7]): 958.7865 RFU
Compound: O=C(O)CC1CCCCC1 [Cyclohexaneacetic acid]

- Lipase (RFU) (lipase; [7]): 958.9943 RFU
Compound: CC(O)(P(=O)(O)O)P(=O)(O)O [Etidronic acid]

- Lipase (RFU) (lipase; [7]): 965.1993 RFU
- Lipase (RFU) (lipase; [8]): 658.9715 RFU
Compound: CCC(=O)C(=O)O [2-Oxobutanoic acid]

- Lipase (RFU) (lipase; [9]): 946.5748 RFU
Compound: O=c1ccn([C@@H]2O[C@H](COP(=O)(O)O)[C@@H](O)[C@H]2O)c(=O)[nH]1 [Uridine-5′-monophosphate]

- Lipase (RFU) (lipase; [6]): 982.9374 RFU
Compound: O=C1/C(=C/c2ccc(O)cc2)Oc2cc(O)ccc21 [Hispidol]

- Lipase (RFU) (lipase; [8]): 1023.714 RFU
Compound: C[C@@H]1O[C@@H](O[C@H]2[C@H](Oc3cc(O)c4c(=O)cc(-c5ccc(O)cc5)oc4c3)O[C@H](CO)[C@@H](O)[C@@H]2O)[C@H](O)[C@H](O)[C@H]1O [Rhoifolin]

- Lipase (RFU) (lipase; [6]): 1062.242 RFU
Compound: O=[N+]([O-])c1ccc(O)c(O)c1 [Compound 4-Nitrocatechol, 4-Nitrocatechol]

- Lipase (RFU) (lipase; [6]): 1060.157 RFU
Compound: COc1cc2oc(-c3ccc(O)cc3)cc(=O)c2c(O)c1OC [Cirsimaritin]

- Lipase (RFU) (lipase; [9]): 1130.424 RFU
Compound: CSCC[C@@H](N)C(=O)O [D-Methionine]

- Lipase (RFU) (lipase; [6]): 1056.278 RFU
Compound: COc1cc(/C=C/C(=O)NCCc2ccc(O)cc2)ccc1O [N-trans-Feruloyltyramine]

- Lipase (RFU) (lipase; [9]): 958.3734 RFU
Compound: N[C@@H](CS(=O)(=O)O)C(=O)O [L-Cysteic Acid]

- Lipase (RFU) (lipase; [8]): 1081.215 RFU
Compound: OC[C@H]1O[C@@H](n2cnc3c(O)ncnc32)C[C@@H]1O [2′-Deoxyinosine]

- Lipase (RFU) (lipase; [6]): 1169.704 RFU
Compound: COc1cc2ccc(=O)oc2cc1OC [Scoparone]

- Lipase (RFU) (lipase; [6]): 1122.568 RFU
Compound: COc1ccc(-c2cc(=O)c3c(O)cc(O[C@@H]4O[C@H](CO)[C@@H](O)[C@H](O)[C@H]4O)cc3o2)cc1O [Diosmetin-7-O-β-D-glucopyranoside]

- Lipase (RFU) (lipase; [5]): 813.9106 RFU
Compound: COC(=O)[C@@H](C)O [D-Lactic Acid Methyl Ester]

- Lipase (RFU) (lipase; [8]): 1221.946 RFU
Compound: CC(C)=CCc1c(-c2ccc(O)cc2O)oc2c(CC=C(C)C)c(O)cc(O)c2c1=O [Mulberrin]

- Lipase (RFU) (lipase; [6]): 867.307 RFU
Compound: CCCCCCCCCCCCCCCCCCCCC [Heneicosane]

- Lipase (RFU) (lipase; [2]): 774.4043 RFU
Compound: CC1=CC(=O)c2ccccc2C1=O [Menadione]

- Lipase (RFU) (lipase; [6]): 1023.483 RFU
Compound: O=c1c(-c2ccc(O)cc2)coc2cc(O[C@@H]3O[C@H](CO)[C@@H](O)[C@H](O)[C@H]3O)cc(O)c12 [Genistin]

- Lipase (RFU) (lipase; [8]): 1051.332 RFU
Compound: O=C(O)Cc1c[nH]c2ccc(O)cc12 [5-Hydroxyindole-3-acetic acid]

- Lipase (RFU) (lipase; [2]): 1057.435 RFU
- Lipase (RFU) (lipase; [6]): 826.427 RFU
Compound: O=C(O)c1cc(=O)[nH]c(=O)[nH]1 [Orotic Acid]

- Lipase (RFU) (lipase; [7]): 1153.434 RFU
- Lipase (RFU) (lipase; [6]): 896.4423 RFU
Compound: CC12CCC(C1)C(C)(C)C2O (stereo not shown) [Fenchyl alcohol]

- Lipase (RFU) (lipase; [8]): 1131.39 RFU
Compound: O=C(O)[C@@H](O)Cc1ccccc1 [(S)-2-Hydroxy-3-phenylpropanoic acid]

- Lipase (RFU) (lipase; [6]): 1063.581 RFU
Compound: CN(CC(=O)O)C(=N)N [Creatine]

- Lipase (RFU) (lipase; [6]): 928.8198 RFU
Compound: O=C(O)CC[C@H](O)C(=O)O.[Na].[Na] [L-2-Hydroxyglutaric acid (disodium)]

More lines, now with the values behind:

Compound: O=C(O)c1cc(O)c(O)c(O)c1 [Gallic acid]
- Lipase (RFU) (lipase; [6]): 7096.454 RFU

Compound: Cc1ccc(C=O)s1 [5-Methyl-2-thiophenecarboxaldehyde]
- Lipase (RFU) (lipase; [7]): 884.2096 RFU

Compound: CCCCC(CC)CCC(=O)O (stereo not shown) [4-Ethyloctanoic acid]
- Lipase (RFU) (lipase; [7]): 904.8141 RFU

Compound: COC(=O)c1ccccc1O [Methyl Salicylate]
- Lipase (RFU) (lipase; [7]): 1262.516 RFU
- Lipase (RFU) (lipase; [6]): 864.5301 RFU

Compound: CSCC[C@H](NC(C)=O)C(=O)O [N-Acetyl-L-methionine]
- Lipase (RFU) (lipase; [7]): 878.6459 RFU

Compound: OC[C@H]1O[C@@H](Oc2cc3c(O)cc(O)cc3[o+]c2-c2ccc(O)c(O)c2)[C@H](O)[C@@H](O)[C@H]1O.[Cl-] [Cyanidin-3-O-galactoside (chloride)]
- Lipase (RFU) (lipase; [8]): 953.1035 RFU

Compound: COc1cc(C=O)ccc1O[C@@H]1O[C@H](CO)[C@@H](O)[C@H](O)[C@H]1O [Glucovanillin]
- Lipase (RFU) (lipase; [8]): 819.6719 RFU

Compound: COc1cc2c3c(cc4ccccc4c3c1OC)N(C)CC2 [Dehydronuciferine]
- Lipase (RFU) (lipase; [6]): 1046.98 RFU

Compound: C/C=C(\C)C(=O)O [Tiglic acid]
- Lipase (RFU) (lipase; [7]): 1078.568 RFU
- Lipase (RFU) (lipase; [6]): 1059.35 RFU

Compound: NCC(=O)O [Glycine]
- Lipase (RFU) (lipase; [5]): 1055.523 RFU
- Lipase (RFU) (lipase; [2]): 1085.013 RFU
- Lipase (RFU) (lipase; [7]): 886.9361 RFU
- Lipase (RFU) (lipase; [8]): 862.6413 RFU

Compound: NC(=O)CCC(=O)O [Succinamic Acid]
- Lipase (RFU) (lipase; [5]): 722.1343 RFU

Compound: CC1=C[C@H](O)CC(C)(C)[C@H]1/C=C/C(C)=C/C=C/C(C)=C/C=C/C=C(C)/C=C/C=C(C)/C=C/C1=C(C)C[C@@H](O)CC1(C)C [Lutein]
- Lipase (RFU) (lipase; [7]): 823.7529 RFU

Compound: C[C@H](O)[C@H](O)[C@@H](O)[C@@H](O)C=O [L-Rhamnose]
- Lipase (RFU) (lipase; [1]): 856.5977 RFU

Compound: COc1ccc(/C=C/C(=O)O)cc1O [Isoferulic acid]
- Lipase (RFU) (lipase; [6]): 918.062 RFU

Compound: N[C@H](CO)C(=O)O [D-Serine]
- Lipase (RFU) (lipase; [1]): 1090.454 RFU
- Lipase (RFU) (lipase; [8]): 996.7927 RFU

Compound: CC(=O)CCCC(C)CCCC(C)CCCC(C)C (stereo not shown) [Hexahydrofarnesyl acetone]
- Lipase (RFU) (lipase; [6]): 878.1319 RFU

Compound: O=C(O)c1cccnc1 [Nicotinic Acid]
- Lipase (RFU) (lipase; [2]): 1041.771 RFU

Compound: O=C1O[C@H](CO)[C@@H](O)[C@H]1O [D-Ribono-1,4-Lactone]
- Lipase (RFU) (lipase; [5]): 447.2339 RFU

Compound: COc1cc2oc(=O)ccc2cc1O [Isoscopoletin]
- Lipase (RFU) (lipase; [6]): 898.933 RFU

Compound: CCOC(=O)C=Cc1ccccc1 [Ethyl cinnamate]
- Lipase (RFU) (lipase; [7]): 954.8666 RFU

Compound: Cn1c(=O)c2[nH]cnc2n(C)c1=O [Theophylline]
- Lipase (RFU) (lipase; [8]): 818.706 RFU

Compound: CC1=NCCc2c1[nH]c1cc(O)ccc21.Cl [Harmalol (hydrochloride)]
- Lipase (RFU) (lipase; [6]): 757.8125 RFU

Compound: O=C(OCc1ccccc1)c1ccccc1O [Benzyl salicylate]
- Lipase (RFU) (lipase; [7]): 910.7358 RFU
- Lipase (RFU) (lipase; [8]): 985.0357 RFU

Compound: CC(O)(CCO)CC(=O)[O-].[Li+] (stereo not shown) [Mevalonic acid (lithium salt)]
- Lipase (RFU) (lipase; [8]): 1179.591 RFU

Compound: Nc1nc2ncc(CNc3ccc(C(=O)N[C@@H](CCC(=O)O)C(=O)O)cc3)nc2c(=O)[nH]1 [Folic Acid]
- Lipase (RFU) (lipase; [2]): 635.4394 RFU
- Lipase (RFU) (lipase; [7]): 1089.591 RFU

Compound: CC(/C=C/C=C(\C)C(=O)O[C@@H]1O[C@H](CO)[C@@H](O)[C@H](O)[C@H]1O)=C\C=C\C=C(C)\C=C\C=C(/C)C(=O)O[C@@H]1O[C@H](CO[C@@H]2O[C@H](CO)[C@@H](O)[C@H](O)[C@H]2O)[C@@H](O)[C@H](O)[C@H]1O [Crocin II]
- Lipase (RFU) (lipase; [6]): 1325.975 RFU

Compound: NC(=O)CC[C@@H](N)C(=O)O [D-Glutamine]
- Lipase (RFU) (lipase; [6]): 1027.219 RFU

Compound: tocopherol [Vitamin E]
- Lipase (RFU) (lipase; Table 7, 500 μg/mL (vitamin C, E, carbonate/bicarbonates), human milk stored 1 week at −20° C., inhibited if RFU <400): 656.444 RFU

Compound: O=C1c2c(O)cc(O)cc2OC(c2ccc(O)c(O)c2)C1O (stereo not shown) [Taxifolin]
- Lipase (RFU) (lipase; [8]): 973.2161 RFU

Compound: O=P(O)(O)OC[C@H]1OC(O)(COP(=O)(O)O)[C@@H](O)[C@@H]1O (stereo partly shown) [Fosfructose (trisodium)]
- Lipase (RFU) (lipase; [8]): 1022.707 RFU

Compound: CCCCCCCCCCCCC [Tridecane]
- Lipase (RFU) (lipase; [6]): 970.7382 RFU

Compound: Cc1ncsc1CCO [4-Methyl-5-thiazoleethanol]
- Lipase (RFU) (lipase; [7]): 986.4381 RFU

Compound: C/C=C/C=C/C(=O)O [Sorbic Acid]
- Lipase (RFU) (lipase; [5]): 390.5742 RFU
- Lipase (RFU) (lipase; [7]): 913.5254 RFU
- Hit in lipase inhibition screen (in words) (lipase; [4]): significantly inhibited lipase activity

Compound: NCc1c[nH]c2ccccc12 [Indole-3-methanamine]
- Lipase (RFU) (lipase; [8]): 774.4333 RFU

Compound: Cc1ccc(C=O)o1 [Compound 5-Methylfurfural, 5-Methylfurfural]
- Lipase (RFU) (lipase; [7]): 1073.657 RFU

Compound: CC(C)=CCC/C(C)=C/CO [Geraniol]
- Lipase (RFU) (lipase; [7]): 1028.31 RFU

Compound: O=c1ccc2ccccc2o1 [Coumarin]
- Lipase (RFU) (lipase; [7]): 880.5184 RFU

Compound: CCCOC(=O)c1ccc(O)cc1 [Propylparaben]
- Lipase (RFU) (lipase; [7]): 846.3629 RFU

Compound: O=C(O)[C@@H](O)[C@@H](O)[C@H](O)[C@@H](O)C(=O)O [D-Saccharic Acid]
- Lipase (RFU) (lipase; [1]): 1181.227 RFU
